Data taken from US9180114B2, “Neurodegenerative diseases and methods of modeling” (PRESIDENT AND FELLOWS OF HARVARD COLLEGE, priority 2008, dated 2015).

Tested on: Hb9::GFP human ES cell-derived motor neurons on SOD1G93A glia
Assay: Survival of human ES cell-derived motor neurons co-cultured with SOD1G93A glia treated with prostaglandin D2 receptor antagonists
Assay type: cell-based
Conditions: 10 days of treatment

O=C(O)CCn1c2c(c3ccccc31)C[C@H](NS(=O)(=O)c1ccc(F)cc1)CC2 [BAY-u3405]
Hb9::GFP cells remaining (cell death / survival of motor neurons) on SOD1G93A glia: had no effect on promoting survival
